According to ChEMBL document CHEMBL3286342, “Design, synthesis, and structure-activity relationships of pyridoquinazolinecarboxamides as RNA polymerase I inhibitors” (J Med Chem, 2014):

Assay: Inhibition of RNA polymerase-1 in human U2OS cells assessed as decrease in nucleolar localization of nucleolin after 3 hrs by epifluorescence microscopic analysis
Assay type: cell-based

Going from `CC(C)N1CCN(C(=O)c2cccn3c(=O)c4cc5ccccc5cc4nc23)CC1` to `CN1CCC(NC(=O)c2cccn3c(=O)c4cc5ccccc5cc4nc23)CC1`, the IC50 falls from greater than 100000 nM to 1380 nM.

First: CCN(CCN(C)C)C(=O)c1cccn2c(=O)c3cc4ccccc4cc3nc12
Second: CN(C)CCCNC(=O)c1cccn2c(=O)c3cc4ccccc4cc3nc12
The IC50 of the first is higher: greater than 100000 nM for the first, 480 nM for the second.

Compared with `CC(CN(C)C)NC(=O)c1cccn2c(=O)c3cc4ccccc4cc3nc12` (stereo not given), `CC(CNC(=O)c1cccn2c(=O)c3cc4ccccc4cc3nc12)N(C)C` (stereo not given) is 4-fold lower in IC50: 160 nM for the first, 40 nM for the second. The second is the more potent here.

First: CC(C)N(CCNC(=O)c1cccn2c(=O)c3cc4ccccc4cc3nc12)C(C)C
Second: CCN(CC)CCNC(=O)c1cccn2c(=O)c3cc4ccccc4cc3nc12
The IC50 of the first is 8.9-fold higher: 1700 nM for the first, 190 nM for the second. The second is the more potent here.

First: O=C(NC1CNC1)c1cccn2c(=O)c3cc4ccccc4cc3nc12
Second: CN(C)CCCCNC(=O)c1cccn2c(=O)c3cc4ccccc4cc3nc12
The IC50 of the first is 8.5-fold lower: 180 nM for the first, 1530 nM for the second. The first is the more potent here.
